Drawing on ChEMBL document CHEMBL2057129, “Evaluation of synthetic FK506 analogues as ligands for the FK506-binding proteins 51 and 52” (J Med Chem, 2012), this text covers IC50 for 1 molecule.

Chains of the proteins cited; added tags and fusions are not shown.
UniProt P62942, whole entry: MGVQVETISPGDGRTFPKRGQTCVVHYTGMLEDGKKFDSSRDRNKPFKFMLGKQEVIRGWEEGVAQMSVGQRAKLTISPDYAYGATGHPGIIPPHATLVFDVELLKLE

By IC50 is commonly meant the concentration that gives 50% inhibition.

This assay concerns the target Peptidyl-prolyl cis-trans isomerase FKBP1A (Homo sapiens, UniProt P62942). As to the kind of experiment: Binding affinity to FKBP12 by fluorescence polarization assay. In general terms: In fluorescence polarisation assays a small probe gives low polarisation when free and higher when bound to something large.

For `CCC(C)(C)C(=O)C(=O)N1CCCC[C@H]1C(=O)O[C@H](CCc1ccc(OC)c(OC)c1)c1cccc(N)c1`, the IC50 is 100 nM.
